Assays:
Assay in all cases: Half inhibitory concentration (IC50) against tumor cells, Cell Counting Kit-8
Assay type in all cases: cell-based
[1] = test system: CAL-62; details: Homo sapiens, CAL-62, 96 h, read-out: inhibitory activity (IC50, nM) against tumor cells proliferation
Protocol: (§1) The tumor cells used herein were cultured in a cell culture medium listed in table A at 37° C. in an incubator with 5% CO2. Prior to experimentation, all cells used were correctly identified by STR profiling, and tested negative for mycoplasma through routine screenings.
(§2) After the cells were treated with the compounds of the present disclosure for a period of time, the cell viability detection reagent was added to the culture medium for cell viability assessment according to the instructions provided with the CCK-8 kit. […] The growth inhibition of the compounds of the present disclosure on cells was plotted by Prism Graphpad software, and the IC50 values of the compounds of the present disclosure were calculated therefrom.

[2] = test system: Daudi; details: Homo sapiens, 96 h, read-out: inhibitory activity (IC50, nM) against tumor cells proliferation
Protocol: as §1, §2

[3] = test system: MV-4-11; details: Homo sapiens, MV4-11, 96 h, read-out: inhibitory activity (IC50, nM) against tumor cells proliferation
Protocol: as §1, §2

[4] = test system: THP-1; details: Homo sapiens, THP-1, 96 h, read-out: inhibitory activity (IC50, nM) against tumor cells proliferation
Protocol: as §1, §2

[5] = test system: Kasumi-1; details: Homo sapiens, Kasumi 1, 96 h, read-out: inhibitory activity (IC50, nM) against tumor cells proliferation
Protocol: as §1, §2

[6] = test system: JEKO-1; details: Homo sapiens, JeKo-1, 96 h, read-out: inhibitory activity (IC50, nM) against tumor cells proliferation
Protocol: as §1, §2

[7] = test system: MM.1R; details: Homo sapiens, 96 h, read-out: inhibitory activity (IC50, nM) against tumor cells proliferation
Protocol: as §1, §2

[8] = test system: CCRF-CEM; details: Homo sapiens, 96 h, read-out: inhibitory activity (IC50, nM) against tumor cells proliferation
Protocol: as §1, §2

[9] = test system: MDA-MB-231; details: Homo sapiens, MDA-MB-231, 96 h, read-out: inhibitory activity (IC50, nM) against tumor cells proliferation
Protocol: as §1, §2

[10] = test system: MM.1S; details: Homo sapiens, MM1.S, 96 h, read-out: inhibitory activity (IC50, nM) against tumor cells proliferation
Protocol: as §1, §2

IC50 [1]: > 10000 nM | IC50 [2]: > 10000 nM | IC50 [3]: > 10000 nM | IC50 [4]: > 10000 nM | IC50 [5]: > 10000 nM | IC50 [6]: > 10000 nM | IC50 [7]: > 10000 nM | IC50 [8]: > 10000 nM | IC50 [9]: > 10000 nM | IC50 [10]: > 10000 nM
SMILES: Nc1cccc2c1CN(C1CCC(=O)NC1=O)C2=O (stereo not shown) [lenalidomide, reference compound]
